The text below walks through data of patent US20040106173A1 (UNIVERSITY OF MIAMI, published 2004).

The target of assay [1] is T1, HA-tagged Cdc23p (pRep41-HA3cdc23) (fission yeast, UniProt O42709 1-593).
T1 construct: also called HA-Cdc23p; HA-Cdc23
T1 sequence (looked up): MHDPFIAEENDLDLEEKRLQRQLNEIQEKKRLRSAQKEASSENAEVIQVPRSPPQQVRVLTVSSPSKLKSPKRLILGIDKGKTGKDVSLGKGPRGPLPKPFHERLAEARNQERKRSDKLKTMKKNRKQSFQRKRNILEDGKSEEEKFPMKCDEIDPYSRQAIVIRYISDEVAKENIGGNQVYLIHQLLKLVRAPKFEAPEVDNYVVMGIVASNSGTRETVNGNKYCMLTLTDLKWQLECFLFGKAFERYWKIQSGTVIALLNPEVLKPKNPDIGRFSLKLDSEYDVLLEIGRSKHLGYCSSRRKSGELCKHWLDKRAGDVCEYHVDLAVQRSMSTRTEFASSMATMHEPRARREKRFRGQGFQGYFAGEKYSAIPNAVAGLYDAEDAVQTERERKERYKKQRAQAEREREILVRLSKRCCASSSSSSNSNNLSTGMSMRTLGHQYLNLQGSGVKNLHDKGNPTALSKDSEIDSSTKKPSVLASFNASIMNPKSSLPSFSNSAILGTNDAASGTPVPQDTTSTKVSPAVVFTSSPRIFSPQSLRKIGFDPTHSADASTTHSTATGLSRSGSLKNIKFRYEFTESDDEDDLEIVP
The assay can be described thus: co-purification on glutathione resin from fission yeast extracts, co-expressed. As to the method: (§1) Immunoblot analysis was performed using standard methodology. For co-purification experiments, ade6-704 ura4-D18 leu1-32 h-cells co-expressing HA-tagged Bot1p and GST-tagged Orb6p (FV17p), or cells co-expressing HA-tagged Bot1p and GST alone (FV16p) as a control were cultured, for 15 hr at 32° C. in the absence of thiamine. HA₃-bot1 was moderately expressed from an attenuated nmt1 promoter (10). GST-tagged fusions were constructed using the pESP plasmid (Qiagen), which also contains a nmt1 promoter. Cells were then re-suspended in HB buffer and broken using a FastPrep FP120 bead beater (Savant). Extracts were spun at 15K rpm for 15 min. GST-tagged Orb6 or GST alone was purified using glutathione beads (Molecular Probes).
(§2) Glutathione beads were washed three times in HB buffer and then eluted. […]
(§3) To confirm this interaction between Bot1p and Orb6p in fission yeast extracts, HA-Bot1p and GST-Orb6p were co-expressed in fission yeast cells, and GST-Orb6p was purified using glutathione-coupled resin. […] Furthermore, neither GST nor GST-Orb6p co-purified with HA-tagged Cdc23p, when co-expressed as an additional control for specificity.

Assay [2] addresses T2, HA-tagged Bot1p (HA3-bot1, pRep41-HA3bot1) (Schizosaccharomyces pombe, UniProt O60096 1-315).
T2 construct: also called HA-Bot1p
T2 sequence: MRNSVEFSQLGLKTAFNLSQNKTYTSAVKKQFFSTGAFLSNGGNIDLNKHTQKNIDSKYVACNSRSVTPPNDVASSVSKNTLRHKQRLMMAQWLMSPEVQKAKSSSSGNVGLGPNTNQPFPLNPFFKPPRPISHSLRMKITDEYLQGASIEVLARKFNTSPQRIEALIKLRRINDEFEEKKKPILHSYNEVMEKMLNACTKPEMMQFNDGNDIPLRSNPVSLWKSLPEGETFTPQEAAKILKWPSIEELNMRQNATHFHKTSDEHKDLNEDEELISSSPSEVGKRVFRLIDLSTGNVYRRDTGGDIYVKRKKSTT
The assay can be described thus: co-purification on glutathione resin from fission yeast extracts, anti-HA immunoblot. The method, then: as §1, §2, §3
Background: In western blotting, separated proteins are transferred to a membrane and probed.

B1: GST alone (pESP-GST) (other, UniProt P08515 1-218, looked up)
chain: MSPILGYWKIKGLVQPTRLLLEYLEEKYEEHLYERDEGDKWRNKKFELGLEFPNLPYYIDGDVKLTQSMAIIRYIADKHNMLGGCPKERAEISMLEGAVLDIRYGVSRIAYSKDFETLKVDFLSKLPEMLKMFEDRLCHKTYLNGDHVTHPDFMLYDALDVVLYMDPMCLDAFPKLVCFKKRIEAIPQIDKYLKSSKYIAWPLQGWQATFGGGDHPPK
In the case of B1, the binding result in assay [1] and in assay [2] was “no binding” throughout.
